Test results reported in patent US20080057129A1, “Drug microparticles” (priority 2006, published 2008).

Test: Solubility of drug in menthol melt
Assay type: physicochemical
Conditions: 70 °C

Question: With Cc1nc2n(c(=O)c1CCN1CCC(c3noc4cc(F)ccc34)CC1)CCCC2 [Risperidone] as the molecule, how does the Solubility read?
Answer: The Solubility was 8.3 % w/w.
